Source: patent US8962608B2, “Cycloalkylnitrile pyrazole carboxamides as janus kinase inhibitors” (Merck Sharp & Dohme Corp., priority 2011, dated 2015)

Amino acid sequences for entries named in this document (tags omitted). Residues count along the entry.
UniProt P23458, 875-1153: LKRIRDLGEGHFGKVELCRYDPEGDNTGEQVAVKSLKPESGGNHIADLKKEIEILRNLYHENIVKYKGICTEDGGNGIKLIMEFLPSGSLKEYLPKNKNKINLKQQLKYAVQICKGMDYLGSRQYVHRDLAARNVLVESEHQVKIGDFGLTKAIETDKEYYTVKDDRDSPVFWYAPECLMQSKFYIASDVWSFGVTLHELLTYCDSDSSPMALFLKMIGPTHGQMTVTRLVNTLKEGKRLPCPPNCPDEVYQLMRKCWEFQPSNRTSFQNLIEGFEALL
UniProt O60674, 849-1124: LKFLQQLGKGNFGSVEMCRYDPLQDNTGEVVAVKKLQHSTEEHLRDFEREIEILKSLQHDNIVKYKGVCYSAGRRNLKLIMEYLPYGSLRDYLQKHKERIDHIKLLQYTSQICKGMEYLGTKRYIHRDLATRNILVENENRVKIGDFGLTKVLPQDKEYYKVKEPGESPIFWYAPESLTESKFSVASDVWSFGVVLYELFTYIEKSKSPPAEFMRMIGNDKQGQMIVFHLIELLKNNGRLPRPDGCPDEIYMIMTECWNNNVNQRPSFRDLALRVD

Key:
[1] = target: JAK1 (recombinant purified GST-tagged catalytic domain) (Homo sapiens (Human), UniProt P23458); assay: biochemical;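 further: biochemical assay with HTRF read-out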
[2] = target: JAK2 (recombinant purified GST-tagged catalytic domain) (Homo sapiens (Human), UniProt O60674); assay: biochemical;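 further: biochemical JAK kinase assay with HTRF detection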

Compound | IC50 [1] | IC50 [2]
N#C[C@H]1C[C@H](N(CC2CC2)C2COC2)CC[C@@H]1n1cc(C(N)=O)c(Nc2ccc(C(F)(F)F)cc2)n1 (single isomer, unassigned) [Example 30-12, 1-{(1S,2S,4R or 1R,2R,4S)-2-cyano-4-[(cyclopropylmethyl)(oxetan-3-yl)amino]cyclohexyl}-3-{[4-(trifluoromethyl)phenyl]amino}-1H-pyrazole-4-carboxamide] | 40 nM | 1200 nM
N#C[C@H]1C[C@H](N(CC2CC2)C2CCC2)CC[C@@H]1n1cc(C(N)=O)c(Nc2ccc(C(F)(F)F)cc2)n1 (single isomer, unassigned) [Example 30-6, 1-{(1S,2S,4R or 1R,2R,4S)-2-cyano-4-[cyclobutyl(cyclo-propylmethyl)amino]cyclo-hexyl}-3-{[4-(trifluoromethyl)phenyl]amino}-1H-pyrazole-4-carboxamide] | 125 nM | 1500 nM
N#C[C@H]1C[C@H](N2CC3(CCC3)C2)CC[C@@H]1n1cc(C(N)=O)c(Nc2ccc([C@@H](O)C(F)(F)F)cc2)n1 (single isomer, unassigned) [Example 28-92, 1-[(1S,2S,4R or 1R,2R,4S)-4-(2-azaspiro[3.3]hept-2-yl)-2-cyanocyclohexyl]-3-({4-[(1R or 1S)-2,2,2-trifluoro-1-hydroxyethyl]phenyl}amino)-1H-pyrazole-4-carboxamide] | 0.1 nM | 27 nM
N#C[C@H]1CCCC[C@@H]1n1cc(C(N)=O)c(Nc2ccc([C@@H](O)C(F)(F)F)cc2)n1 (single isomer, unassigned) [Example 17-36, 1-[(1S,2S or 1R,2R)-2-cyanocyclohexyl]-3-({4-[(1R or 1S)-2,2,2-trifluoro-1-hydroxyethyl]phcnyl}amino)-1H-pyrazole-4-carboxamide] | 0.19 nM | 2 nM
CC1CN([C@@H]2CC[C@H](n3cc(C(N)=O)c(Nc4ccc(S(=O)(=O)C(F)(F)F)cc4)n3)[C@@H](C#N)C2)C1 (single isomer, unassigned) [Example 28-187, 1-[(1S,2S,4R or 1R,2R,4S)-2-cyano-4-(3-methylazetidin-1-yl)cyclohexyl]-3-({4-[(trifluoromethyl)sulfonyl]phen-yl}amino)-1H-pyrazole-4-carboxamide] | 0.2 nM | 25 nM
C[C@@]1(O)CC[C@H](n2cc(C(N)=O)c(Nc3ccc([C@](C)(O)C(F)(F)F)cc3)n2)[C@@H](C#N)C1 (single isomer, unassigned) [Example 32-9, 1-[(1S,2S,4R or 1R,2R,4S)-2-cyano-4-hydroxy-4-methylcyclohexyl]-3-({4-[(1S or 1R)-2,2,2-trifluoro-1-hydroxy-1-methylethyl]phenyl}amino)-1H-pyrazole-4-carboxamide] | – | 4 nM
COCC(C)N[C@H]1CCC(n2cc(C(N)=O)c(Nc3ccc(Cl)cc3)n2)[C@@H](C#N)C1 (single isomer, unassigned) [Example 28-237, 3-[(4-chlorophenyl)amino]-1-[(1S,2S,4S or 1R,2R,4R)-2-cyano-4-{[(1S)-2-methoxy-1-methylethyl]amino}cyclohexyl]-1H-pyrazole-4-carboxamide] | – | 33 nM
N#C[C@@H]1CC2(CCC1n1cc(C(N)=O)c(Nc3ccnc(F)c3)n1)CC2 (mixture of isomers) [Example 11-7, 1-((5R,6R and 5S,6S)-5-cyanospiro[2.5]octan-6-yl)-3-((2-fluoropyridin-4-yl)amino)-1H-pyrazole-4-carboxamide] | – | 19 nM
C[C@@H]1C[C@@H](C)N1[C@@H]1CC[C@H](n2cc(C(N)=O)c(Nc3ccc(C(F)(F)F)cc3)n2)[C@@H](C#N)C1 (single isomer, unassigned) [Example 28-30, 1-{(1S,2S,4R or 1R,2R,4S)-2-cyano-4-[(2R,4R or 2S,4S)-2,4-dimethylazetidin-1-yl]cyclohexyl}-3-{[4-(trifluoromethyl)phenyl]amino}-1H-pyrazole-4-carboxamide] | – | 575 nM
CC(C)(CF)c1ccc(Nc2nn([C@H]3CC[C@H](O)C[C@@H]3C#N)cc2C(N)=O)cc1 (single isomer, unassigned) [Example 33-21, 1-[(1S,2S,4S or 1R,2R,4R)-2-cyano-4-hydroxycyclohexyl]-3-{[4-(2-fluoro-1,1-dimethylethyl)phenyl]amino}-1H-pyrazole-4-carboxamide] | – | 6 nM
N#C[C@H]1C[C@](O)(C2CC2)CC[C@@H]1n1cc(C(N)=O)c(Nc2ccc(Cl)cc2)n1 (single isomer, unassigned) [Example 32-12, 3-[(4-chlorophenyl)aminol-1-[(1S,2S,4S or 1R,2R,4R)-2-cyano-4-cyclopropyl-4-hydroxycyclohexyl]-1H-pyrazole-4-carboxamide] | – | 10 nM
CC(C)NC(=O)O[C@H]1CCC(n2cc(C(N)=O)c(Nc3ccc(F)cc3)n2)[C@@H](C#N)C1 (mixture of isomers) [Example 34-8, (1S,3S,4S and 1R,3R,4R)-4-{4-carbamoyl-3-[(4-fluorophenyl)amino]-1H-pyrazol-1-yl}-3-cyanocyclohexyl propan-2-ylcarbamate] | – | 94 nM
N#C[C@H]1CCCC[C@@H]1n1cc(C(N)=O)c(Nc2ccc(F)nc2)n1 (single isomer, unassigned) [Example 17-19, 1-[(1S,2S or 1R,2R)-2-cyanocyclohexyl]-3-[(6-fluoropyridin-3-yl)amino]-1H-pyrazole-4-carboxamide] | – | 18 nM
CC(=O)c1ccc(Nc2nn([C@H]3CCCC[C@@H]3C#N)cc2C(N)=O)cc1 (single isomer, unassigned) [Example 17-27, 3-[(4-acetylphenyl)amino]-1-[(1S,2S or 1R,2R)-2-cyanocyclohexyl]-1H-pyrazole-4-carboxamide] | – | 2 nM
CC(C)N[C@@H]1CC[C@H](n2cc(C(N)=O)c(Nc3ccc(S(=O)(=O)C(F)(F)F)cc3)n2)[C@@H](C#N)C1 (single isomer, unassigned) [Example 28-175, 1-{(1S,2S,4R or 1R,2R,4S)-2-cyano-4-[(1-methylethyl)amino]cyclohexyl}-3-({4-[(trifluoro-methyl)sulfonyl]phenyl}amino)-1H-pyrazole-4-carboxamide] | – | 19 nM
C[C@@H]1C[C@@H](C)N1[C@H]1CC[C@H](n2cc(C(N)=O)c(Nc3ccc(C(F)(F)F)cc3)n2)[C@@H](C#N)C1 (single isomer, unassigned) [Example 28-9, 1-{(1S,2S,4S or 1R,2R,4R)-2-cyano-4-[(2R,4R or 2S,4S)-2,4-dimethylazetidin-1-yl]cyclohexyl}-3-{[4-(trifluoromethyl)phenyl]amino}-1H-pyrazole-4-carboxamide] | – | 84 nM
N#C[C@H]1CCCC[C@@H]1n1cc(C(N)=O)c(Nc2cc(F)cc(Cl)c2)n1 (single isomer, unassigned) [Example 17-51, 3-[(3-chloro-5-fluorophenyl)amino]-1-[(1S,2S or 1R,2R)-2-cyanocyclohexyl]-1H-pyrazole-4-carboxamide] | – | 42 nM
CC(C)(c1ccc(Nc2nn([C@H]3CC[C@@](C)(O)C[C@@H]3C#N)cc2C(N)=O)cc1)C(O)C(F)(F)F (single isomer, unassigned) [Example 32-6, 1-[(1S,2S,4R or 1R,2R,4R)-2-cyano-4-hydroxy-4-methylcyclohexyl]-3-{[4-(3,3,3-trifluoro-(2R or 2S)-hydroxy-1,1-dimethylpropyl)phenyl]amino}-1H-pyrazole-4-carboxamide] | – | 5 nM
